Assay results from patent US20200147215A1, “DRUG CONJUGATES WITH PHOTOCLEAVABLE SOLUBILITY MODULATORS” (priority 2017, published 2020).

Experiments:
[1] = Photolysis of G2PEA-insulin in PBS pH 7.2, insulin released into supernatant; type: physicochemical
Text: The drug conjugate was then examined in aqueous buffer (phosphate buffered saline or PBS) at pH 7.2.

[2] = Visual solubility of G2PEA-insulin at pH 4 versus pH ~7; type: physicochemical
[3] = Quantitative solubility of G2PEA-insulin and insulin in buffer at pH 7.2 and pH 5.4; conditions: Table 8, pH 5.4

Q: Which results are given for “G2PEA-insulin drug conjugate: drug conjugate of insulin and glutamic acid condensed with two 1-(2-Aminoethyl)pyrrolidine moieties (G2PEA), photocleavable link”?
A: solubility in words [1]: largely insoluble; appearance of solution ([2]; acidic pH 4): completely clear; appearance of solution ([2]; pH adjusted to ~7 with buffer): the solution goes cloudy; Solubility [3]: 112.9 ± 17.8 µM
